Experimental data taken from ChEMBL document CHEMBL1145271 (Bioorg Med Chem Lett, 2005).

Amino acid sequences for entries named in this document (tags omitted). A change or cut given only in a name is not applied to a line headed by its entry.
UniProt P41145: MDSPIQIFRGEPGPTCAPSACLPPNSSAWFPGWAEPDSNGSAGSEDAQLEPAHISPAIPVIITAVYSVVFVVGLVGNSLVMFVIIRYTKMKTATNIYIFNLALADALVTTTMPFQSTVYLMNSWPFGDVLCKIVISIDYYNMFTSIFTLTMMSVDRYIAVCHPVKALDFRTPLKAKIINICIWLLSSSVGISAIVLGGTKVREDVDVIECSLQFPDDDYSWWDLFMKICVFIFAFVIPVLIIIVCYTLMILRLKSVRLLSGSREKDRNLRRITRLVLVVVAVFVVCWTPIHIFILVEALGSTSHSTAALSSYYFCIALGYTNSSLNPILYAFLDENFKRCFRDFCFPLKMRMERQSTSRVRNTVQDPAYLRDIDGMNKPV

Key:
[1] = molecular target: T1, Kappa-type opioid receptor (Homo sapiens, UniProt P41145); experiment: Activation of human Opioid receptor kappa 1 expressed in chinese hamster ovary cells to enhance [35S]GTP-gamma-S, binding compared to U50,488H; assay type: functional, cell-based
Procedure, shortened: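 Agonist efficacy at human κ-opioid receptor, read as enhancement of [35S]GTPγS binding and expressed as % of the maximal response to U50,488H. Mean of at least three independent experiments, each run in duplicate.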

[2] = molecular target: T1, Kappa-type opioid receptor; experiment: Inhibition of [3H]diprenorphine binding to human Opioid receptor kappa 1 expressed in chinese hamster ovary cells; assay type: cell-based, CHO
Procedure, shortened: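 Ki from inhibition of [3H]diprenorphine binding to human κ-opioid receptor. Mean of at least three independent experiments, each run in duplicate.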

[3] = molecular target: T1, Kappa-type opioid receptor; experiment: Effective concentration for activation of human Opioid receptor kappa 1 expressed in chinese hamster ovary cells to enhance [35S]GTP-gamma-S, binding; assay type: functional, cell-based
Procedure, shortened: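 EC50 for human κ-opioid receptor activation, read as enhancement of [35S]GTPγS binding. Mean of at least three independent experiments, each run in duplicate.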

Compound | Efficacy [1] [%] | Ki [2] [nM] | EC50 [3] [nM]
CCCCO[C@H]1C[C@@H](C(=O)OC)[C@]2(C)CCC3C(=O)O[C@H](c4ccoc4)C[C@]3(C)[C@H]2C1=O (some centres not stated) | 105 |  | 
COC(=O)[C@@H]1C[C@H](OCc2ccccc2)C(=O)[C@H]2[C@@]1(C)CCC1C(=O)O[C@H](c3ccoc3)C[C@@]12C (some centres not stated) | 102 |  | 
CCN[C@@H]1C[C@@H](C(=O)OC)[C@]2(C)CC[C@H]3C(=O)O[C@H](c4ccoc4)C[C@]3(C)[C@H]2C1=O | 111 |  | 
CCO[C@H]1C[C@@H](C(=O)OC)[C@]2(C)CC[C@H]3C(=O)O[C@H](c4ccoc4)C[C@]3(C)[C@H]2C1=O [DEOXY SALVINORIN A] |  | 7.9 | 18.6
COC(=O)[C@@H]1C[C@H](O)C(=O)[C@H]2[C@@]1(C)CC[C@H]1C(=O)O[C@H](c3ccoc3)C[C@]21C [SALVINORIN B] |  | 155 | 371
